The target of experiment [1] is T1, HSL (Rattus norvegicus, UniProt P15304). The experiment in a line: Tributyrin assay. The following applies: read-out: IC50, Tributyrin assay; Example 6, Table 6; n=5, mean±SD.
Experiment [2] addresses T1, HSL. Description: Direct NAG assay (released NBD-FA, TLC/fluorimetry). Conditions: read-out: IC50, NBD-FA released; Example 5, Table 5; 20 μg HSL, 60 min; n=6, mean±SD.
The target in experiment [3] is T1, HSL. The experiment in a line: TAG assay ([3H]trioleoylglycerol cleavage). The following applies: read-out: IC50, TAG assay.
The target of experiment [4] is T1, HSL. Description: PNPB assay. The following applies: read-out: IC50, PNPB assay; Example 6, Table 6; n=5, mean±SD.
Experiment [5] concerns the target T1, HSL. The experiment in a line: Indirect NAG assay (extinction increase at 481 nm). The following applies: read-out: IC50, NAG assay, 20 μg HSL, 60 min.
[6] abbreviates: Example 5, Table 5, n=6, mean±SD.
[7] abbreviates: Example 6, Table 6, n=5, mean±SD.

By UniProt entry, the sequences of proteins in these tests, tags left out. Residues count along the entry.
UniProt P15304, 301-1068: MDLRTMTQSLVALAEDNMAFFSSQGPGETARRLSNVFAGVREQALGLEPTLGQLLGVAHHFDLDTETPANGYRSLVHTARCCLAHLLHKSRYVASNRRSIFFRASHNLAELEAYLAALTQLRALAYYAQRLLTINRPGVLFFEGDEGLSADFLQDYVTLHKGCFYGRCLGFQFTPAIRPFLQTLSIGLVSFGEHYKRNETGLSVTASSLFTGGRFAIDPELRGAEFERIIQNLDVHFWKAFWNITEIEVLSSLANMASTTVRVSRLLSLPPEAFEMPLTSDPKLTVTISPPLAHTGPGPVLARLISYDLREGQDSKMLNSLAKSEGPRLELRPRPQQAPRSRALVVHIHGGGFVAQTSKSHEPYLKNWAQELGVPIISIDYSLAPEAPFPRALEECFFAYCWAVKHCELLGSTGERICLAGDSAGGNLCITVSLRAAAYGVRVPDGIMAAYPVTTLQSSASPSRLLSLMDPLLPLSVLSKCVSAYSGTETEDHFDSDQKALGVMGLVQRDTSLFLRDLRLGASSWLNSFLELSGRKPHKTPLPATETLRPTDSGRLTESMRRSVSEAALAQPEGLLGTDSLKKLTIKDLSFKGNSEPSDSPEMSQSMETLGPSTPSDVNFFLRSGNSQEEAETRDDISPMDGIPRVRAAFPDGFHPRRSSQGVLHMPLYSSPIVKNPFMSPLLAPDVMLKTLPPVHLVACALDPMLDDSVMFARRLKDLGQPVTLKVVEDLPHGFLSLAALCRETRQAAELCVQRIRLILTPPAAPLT

Consider `CCCCCCCCCCCCCCCCCCOCC(COC(=O)CCCCCCCCCCCNc1ccc([N+](=O)[O-])c2nonc12)OCCCCCCCCCCCCCCCCCC` (centres unmarked), for which the IC50 at HSL [1] amounted to 7.88 µM; at HSL [2], 5.09 µM; at HSL [3] (setting [6]), 35.9 µM; on HSL [3] (setting [7]), 35.5 µM; at HSL [4], 12.6 µM; on HSL [5] (setting [6]), 4.29 µM. Further, the 50% inhibitory concentration (IC50) at HSL [5] (setting [7]) stood at 4.94 µM.
`O=C(O)CCCCCCCCCCCNc1ccc([N+](=O)[O-])c2onnc12`: the IC50 at HSL [1] stood at 2.56 µM; on HSL [2], 0.78 µM; on HSL [3] (setting [6]), 5.21 µM; at HSL [3] (setting [7]), 7.45 µM; on HSL [4], 3.56 µM; on HSL [5] (setting [6]), 0.78 µM. Further, the IC50 on HSL [5] (setting [7]) was determined as 0.85 µM.
`CC(=O)OCC(COC(=O)CCCCCCCCCCCNc1ccc([N+](=O)[O-])c2nonc12)OC(C)=O` (centres unmarked) [Compound (4), 2-Acetoxy-3-[12-(7-nitrobenzo[1,2,5]oxadiazol-4-ylamino)-dodecanoyloxy]propyl acetate]: the IC50 on HSL [1] is > 100 µM; on HSL [2], 2.98 µM; on HSL [3] (setting [6]), 18.2 µM; at HSL [3] (setting [7]) it was 20.4 µM; at HSL [4], 93.6 µM; at HSL [5] (setting [6]), 2.45 µM. Moreover, the IC50 on HSL [5] (setting [7]) was 3.18 µM.
In the case of `CCCCCC(=O)OCC(COC(=O)CCCCCCCCCCCNc1ccc([N+](=O)[O-])c2nonc12)OC(=O)CCCCC` (centres unmarked) [Compound (5), 2-Hexanoyloxy-3-[12-(7-nitrobenzo[1,2,5]oxadiazol-4-ylamino)-dodecanoyloxy]propyl hexanoate], the IC50 on HSL [1] was 4.09 µM; at HSL [2] it was 3.58 µM; at HSL [3] (setting [6]) it was 18.9 µM; at HSL [3] (setting [7]) it was 25.3 µM; on HSL [4], 10.5 µM; at HSL [5] (setting [6]) it was 2.79 µM. Moreover, the IC50 at HSL [5] (setting [7]) is 2.96 µM.
For `CCCCCCCCCCCCCCCC(=O)OCC(COC(=O)CCCCCCCCCCCNc1ccc([N+](=O)[O-])c2nonc12)OC(C)=O` (centres unmarked) [Compound (7), 2-Acetyloxy-3-[12-(7-nitrobenzo[1,2,5]oxadiazol-4-ylamino)-dodecanoyloxy]propyl hexadecanoate], the IC50 at HSL [1] is 38 µM; on HSL [2] it was 4.51 µM; at HSL [3] (setting [6]), 33.1 µM; at HSL [3] (setting [7]), 30.2 µM; at HSL [4], 75.3 µM; on HSL [5] (setting [6]), 3.82 µM. Moreover, the IC50 at HSL [5] (setting [7]) is 4.56 µM.

One may read the IC50 as the point on the concentration scale where inhibition reaches its midpoint.

The values above are taken from patent US6783949B1, “Processes for determining whether a test substance contains lipases or lipase inhibitors” (Aventis Pharma Deutschland GmbH, priority 1999, dated 2004).
